Reference: patent US8933229B2, “8-azabicyclo[3.2.1]octane-8-carboxamide derivative” (Sumitomo Dainippon Pharma Co., Ltd., priority 2009, dated 2015)

The chains behind the UniProt entries cited, without tags or fusion partners.
UniProt P50172, whole entry: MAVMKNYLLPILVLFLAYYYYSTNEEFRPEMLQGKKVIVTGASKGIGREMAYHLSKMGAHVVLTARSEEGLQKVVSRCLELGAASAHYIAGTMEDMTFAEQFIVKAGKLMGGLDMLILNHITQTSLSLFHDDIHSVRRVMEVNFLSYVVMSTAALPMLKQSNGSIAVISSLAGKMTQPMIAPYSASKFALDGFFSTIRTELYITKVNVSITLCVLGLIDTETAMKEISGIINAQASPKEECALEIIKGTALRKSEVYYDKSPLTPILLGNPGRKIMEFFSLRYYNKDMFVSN
UniProt P28845, whole entry: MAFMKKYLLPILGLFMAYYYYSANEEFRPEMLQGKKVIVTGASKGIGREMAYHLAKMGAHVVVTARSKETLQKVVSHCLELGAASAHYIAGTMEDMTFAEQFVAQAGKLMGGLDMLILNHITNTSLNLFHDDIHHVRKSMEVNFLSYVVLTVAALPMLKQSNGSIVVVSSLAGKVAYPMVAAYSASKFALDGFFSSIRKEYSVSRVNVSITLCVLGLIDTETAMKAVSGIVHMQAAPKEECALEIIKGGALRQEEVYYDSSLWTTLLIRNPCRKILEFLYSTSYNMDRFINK

Key:
[1] = biological target: cortisone reductase of mouse adipose cell (11βHSD1) (Mus musculus, UniProt P50172); test: Inhibitory activity assay against cortisone reductase of mouse primary adipocytes; details: read-out: IC50 against cortisone reductase of mouse adipose cell, differentiated ICR mouse visceral fat primary adipocytes, 100 nM [1,2-3H] cortisone, 37° C.
Protocol: The adipose tissues adhered to the mesenterium and around the testicle of ten ICR male mice (9 to 11 weeks old, Japn SLC Inc.) (hereinafter, referred to as visceral fat tissue) were soaked in about 100 mL of a phospate buffer (0.20 g/L KCl, 0.20 g/L KH2PO4, 8.00 g/L NaCl, 2.16 g/L Na2HPO4.7H2O, 100 unit/ml penicillin (GIBCO), 100 μg/ml streptomycin (GIBCO), 250 ng/ml amphotericin (GIBCO)) and washed at room temperature.
The excised visceral fat tissues was cut finely in about 5×5 mm with scissors in Dulbecco's modified Eagle medium (about 50 ml, containing 4.5 g/L D-glucose and 584 mg/L L-glutamine, GIBCO) to which collagenase (Type II, Sigma), penicillin (GIBCO), streptomycin (GIBCO) and amphotericin (GIBCO) were added in an amount so that the final concentrations thereof are adjusted to 1 mg/ml, 100 unit/ml, 100 μg/ml and 250 ng/ml, respectively. Then, the mixture was shaken at 37° C. for 30 minutes (about 170 rpm), filtered through nylon mesh (80S [the pore size: 250 μm], SANSHIN INDUSTRIAL CO., LTD.), and the filtrate (cell suspension) was collected. […]
The cells in the cell suspension were counted with a counting chamber, and the cell suspension was diluted with the FBS-containing medium so that the concentration of the cell was adjusted to 1.4×10^5 cells/ml. […]

[2] = biological target: cortisone reductase of human adipose cell (11βHSD1) (Homo sapiens, UniProt P28845); test: Inhibitory activity assay against cortisone reductase activity of cultured human adipocytes; details: read-out: IC50 against cortisone reductase of human adipose cell, differentiated normal human preadipocytes (HPrAD-vis), 100 nM [1,2-3H] cortisone, 37° C.
Protocol: Normal human preadipocytes (HPrAD-vis, manufactured by Cambrex corporation) were inoculated onto a 48-well cell culture plate, and the differentiation induction was carried out according to Protocol attached to the kit. The medium for the cells on the 9-11 days of the differentiation was changed to D-MEM medium (0.2 ml; manufactured by GIBCO) containing 100 nM [1,2-^3H] cortisone (1 μCi/well, manufactured by Muromachi Yakuhin), 0.5% DMSO, a test compound (for test compound treated group, or DMSO only for the no-test compound treated group). The plate was incubated at 37° C. for 3 hours, and then the whole medium was collected. As a background group, the medium without cell was used. The medium was mixed with ethyl acetate (0.1 ml) in an Eppendorf tube. This mixture was voltexed, and then further centrifuged at 5,000 rpm for one minute at room temperature to separate the ethyl acetate layer (the upper layer). […] After the exposure was completed, the imaging plate was analyzed by Bioimage Analyzer (BAS2500, Fujifilm) and the [^3H] radioactivity on the part corresponding to the position of cortisol developed on the TLC plate. The inhibitory activity of a test compound against cortisone reductase was calculated according to the following equation. […]

Structure (SMILES) | IC50 [1] | IC50 [2]
Cc1cccc(N2CCC(O[C@H]3C[C@H]4CC[C@@H](C3)N4C(=O)N[C@H]3C4CC5CC3C[C@](O)(C5)C4)CC2)n1 | < 3 nM | –
O=C(N[C@H]1C2CC3CC1C[C@](O)(C3)C2)N1[C@@H]2CC[C@H]1C[C@@H](Oc1cccc(OCCF)c1)C2 | – | 12 nM
